The text below walks through data of ChEMBL document CHEMBL1126016, “Inhibitors of protein kinase C. 1. 2,3-Bisarylmaleimides” (J Med Chem, 1992).

The target of this test is Protein kinase C gamma type (Rattus norvegicus, UniProt P63319). The experiment in a line: Inhibition of rat brain protein kinase C (PKC) with ATP and histone as substrates. In a few lines: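 Rat brain PKC assayed with ATP and histone as substrates. Inhibitors were dissolved as DMSO stocks and tested in 10% aqueous DMSO final. Concentrations above 100 μM were not tested. Each point was run in triplicate, and the IC50 is the mean of at least two independent assays.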

The compound `COC(=O)[C@@]1(O)C[C@H]2O[C@]1(C)n1c3ccccc3c3c4c(c5c6ccccc6n2c5c31)C(=O)NC4` (single isomer, unassigned) [K-252A] showed an IC50 of 470 nM.

The term IC50 denotes the concentration that gives 50% inhibition. Low readings indicate greater potency in that assay, high ones weaker potency in that assay.
